Measurements published in ChEMBL document CHEMBL1135688, “Pharmacophore model of drugs involved in P-glycoprotein multidrug resistance: explanation of structural variety (hypothesis)” (J Med Chem, 2002).

Chains of the proteins cited; added tags and fusions are not shown.
UniProt P08183, whole entry: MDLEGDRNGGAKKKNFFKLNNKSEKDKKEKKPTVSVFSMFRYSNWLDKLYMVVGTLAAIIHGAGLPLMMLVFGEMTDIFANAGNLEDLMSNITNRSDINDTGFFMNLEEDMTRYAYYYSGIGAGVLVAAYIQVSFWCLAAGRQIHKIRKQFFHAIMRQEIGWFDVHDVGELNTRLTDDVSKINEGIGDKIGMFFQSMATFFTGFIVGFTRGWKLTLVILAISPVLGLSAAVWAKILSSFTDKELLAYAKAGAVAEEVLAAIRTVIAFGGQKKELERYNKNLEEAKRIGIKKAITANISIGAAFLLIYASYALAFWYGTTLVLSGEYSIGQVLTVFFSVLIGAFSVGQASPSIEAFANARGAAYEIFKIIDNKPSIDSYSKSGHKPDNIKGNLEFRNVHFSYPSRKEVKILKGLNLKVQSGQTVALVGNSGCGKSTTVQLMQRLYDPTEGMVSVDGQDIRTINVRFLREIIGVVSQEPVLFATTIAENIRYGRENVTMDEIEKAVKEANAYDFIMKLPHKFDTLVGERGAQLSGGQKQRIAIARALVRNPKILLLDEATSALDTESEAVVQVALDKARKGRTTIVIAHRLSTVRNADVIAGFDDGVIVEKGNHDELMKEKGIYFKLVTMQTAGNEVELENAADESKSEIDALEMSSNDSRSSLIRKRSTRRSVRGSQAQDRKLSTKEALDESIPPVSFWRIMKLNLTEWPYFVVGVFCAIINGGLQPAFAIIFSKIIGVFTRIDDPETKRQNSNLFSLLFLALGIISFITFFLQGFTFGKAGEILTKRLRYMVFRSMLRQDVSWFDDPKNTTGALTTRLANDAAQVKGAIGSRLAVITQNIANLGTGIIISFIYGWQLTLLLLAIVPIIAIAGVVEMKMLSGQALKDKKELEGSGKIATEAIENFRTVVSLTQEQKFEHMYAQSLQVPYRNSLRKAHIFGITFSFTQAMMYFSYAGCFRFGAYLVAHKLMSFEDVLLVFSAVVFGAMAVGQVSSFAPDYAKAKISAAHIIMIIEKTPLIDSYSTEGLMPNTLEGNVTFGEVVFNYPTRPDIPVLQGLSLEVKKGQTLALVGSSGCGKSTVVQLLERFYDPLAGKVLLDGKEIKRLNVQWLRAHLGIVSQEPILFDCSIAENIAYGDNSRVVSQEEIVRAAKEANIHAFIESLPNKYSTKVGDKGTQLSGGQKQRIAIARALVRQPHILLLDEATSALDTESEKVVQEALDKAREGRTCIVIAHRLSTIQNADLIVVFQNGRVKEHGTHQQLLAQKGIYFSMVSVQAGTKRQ

What was measured:
[1] = molecular target: T1, ATP-dependent translocase ABCB1 (Homo sapiens, UniProt P08183); assay: High affinity constant at binding site of human P-Glycoprotein (P-gp) in two-affinity model
[2] = molecular target: T1, ATP-dependent translocase ABCB1

Ki [1] [nM] | Ki [2] [nM] | Compound
600 |  | CN(C)CCCN1c2ccccc2Sc2ccc(Cl)cc21 [CHLORPROMAZINE]
 | 6500 | CN1CCN(CCCN2c3ccccc3Sc3ccc(C(F)(F)F)cc32)CC1 [TRIFLUOPERAZINE]
